This note sets out measurements from ChEMBL document CHEMBL5727868, “Amido spirocyclic amide and sulfonamide derivatives” (2020).

Amino acid sequences for entries named in this document (tags omitted). A change or cut given only in a name is not applied to a line headed by its entry.
UniProt P43490: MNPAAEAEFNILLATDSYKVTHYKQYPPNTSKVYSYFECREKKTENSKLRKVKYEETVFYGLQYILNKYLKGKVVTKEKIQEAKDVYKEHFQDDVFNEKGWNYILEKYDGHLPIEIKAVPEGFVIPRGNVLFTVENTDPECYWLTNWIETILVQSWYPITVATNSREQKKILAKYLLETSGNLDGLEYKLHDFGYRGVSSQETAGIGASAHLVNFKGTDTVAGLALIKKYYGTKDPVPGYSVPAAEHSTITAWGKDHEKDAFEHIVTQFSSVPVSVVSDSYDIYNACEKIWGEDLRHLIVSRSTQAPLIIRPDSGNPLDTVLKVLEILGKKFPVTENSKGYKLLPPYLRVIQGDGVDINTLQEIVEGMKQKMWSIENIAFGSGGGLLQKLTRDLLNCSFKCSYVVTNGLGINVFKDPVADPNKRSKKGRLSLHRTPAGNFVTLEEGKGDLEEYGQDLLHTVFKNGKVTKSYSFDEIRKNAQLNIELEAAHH

pIC50: −log10 of the molar value.

One may read the pIC50 as the IC50 on a negative log10 scale, so that one unit is a factor of ten. A high value points to a small IC50.

For the first assay, the target named is T1, Nicotinamide phosphoribosyltransferase (Homo sapiens, UniProt P43490). Kind of assay: biochemical.
Consider `CCC(=O)N1CCC2(CC1)CC2CNC(=O)c1cc2cnccc2[nH]1` (stereo not drawn), for which the pIC50 is 6.40.

For another assay, the target named is T1, Nicotinamide phosphoribosyltransferase.
Assay: not given
As for `C=CC1=C(C=N)CN(C(=O)NCC2CC23CCN(C(=O)OCC(C)(C)O)CC3)C1` (stereo not drawn), the pIC50 was 7.17.

For `O=C(NCC1CC12CCN(C(=O)c1ccccc1)CC2)c1cc2cnccc2[nH]1` (stereo not drawn), the pIC50 is 6.59.

Consider `O=C(NCC1CC12CCN(C(=O)Cc1cccc([SH](=O)=O)c1)CC2)c1cc2ccncc2o1` (stereo not drawn), for which the negative logarithm of the IC50 (pIC50) is 7.19.

Consider `COc1ccccc1CNC(=O)N1CCC2(CC1)CC2CNC(=O)c1cc2c(o1)C=NCC2` (stereo not drawn), for which the negative-log IC50 (pIC50) is 6.93.

Consider `O=C(NCC1CC12CCN(C(=O)CCC1CCCCC1)CC2)C1Cc2cnccc2O1` (stereo not drawn), for which the pIC50 was 7.95.

For `C=Cc1cc(C(=O)NCC2CC23CCN(C(=O)CCN2CCOCC2)CC3)oc1C=N` (stereo not drawn), the negative logarithm of the IC50 (pIC50) is 6.28.

`CCOCCNCCC(=O)N1CCC2(CC1)CC2CNC(=O)N1Cc2ccncc2C1` (stereo not drawn) gave a negative-log IC50 (pIC50) of 7.26.

`CCN(CCCCCCNC(=O)N1CC2=C(CCN=C2)C1)C(=O)Cc1ccc(C#N)cc1` gave a pIC50 of 7.31.

Take `COCC(=O)N1CCC2(CC1)CC2CNC(=O)c1cc2cnccc2[nH]1` (stereo not drawn): the pIC50 is 6.14.

`C=CCC(/C=C/CC(=O)N1CCC2(CC1)CC2CNC(=O)C1Cc2cnccc2O1)C(F)(F)F` (stereo not drawn) had a pIC50 of 7.92.

Take `CCC1(CCNC(=O)CC2(C)CCN(C)CC2)CC1CNC(=O)N1CC2=CC=NCC2C1` (stereo not drawn): the pIC50 is 8.22.

On to `CC(=O)Nc1cccc(CN2CCC3(CC2)CC3CNC(=O)c2cc3ccncc3o2)c1` (stereo not drawn), for which the pIC50 was 7.17.

For the molecule `O=C(NCC1CC12CCN(C(=O)C1CCCCC1)CC2)c1cc2cnccc2[nH]1` (stereo not drawn), the pIC50 is 6.97.

Consider `O=C(NCC1CC12CCN(C(=O)c1cnccn1)CC2)c1cc2ccncc2o1` (stereo not drawn), for which the pIC50 is 6.24.

With `CCN(C)CCCCC(=O)NCCC1(CC)CC1CNC(=O)c1cc2ccncc2o1` (stereo not drawn), the pIC50 was 6.11.

In the case of `O=C(CC1=CCCC=C1)N1CCC2(CC1)CC2CNC(=O)N1Cc2ccncc2C1` (stereo not drawn), the pIC50 was 7.63.

In turn, `Cn1nc(C(C)(C)C)cc1C(=O)N1CCC2(CC1)CC2CNC(=O)c1cc2c(o1)C=NCC2` (stereo not drawn) had a pIC50 of 7.06.

`C=C/C=C/N=C\C=C\N=C\C(=O)N1CCC2(CC1)CC2CNC(=O)c1cc2ccncc2o1` (stereo not drawn) gave a pIC50 of 7.16.

Regarding `CC(C)(CO)OC(=O)N1CCC(CCCNC(=O)N2Cc3ccncc3C2)CC1`, the pIC50 was 7.54.

Take `CC1CC12CCN(C(=O)CC1CC1)CC2` (stereo not drawn): the pIC50 was 6.82.

Take `O=C(NCCCC1CCNCC1)c1cc2cnccc2[nH]1`: the negative logarithm of the IC50 (pIC50) is 6.85.

Turning to `O=C(NCC1CC12CCN(S(=O)(=O)c1ccccc1)CC2)c1cc2cnccc2[nH]1` (stereo not drawn), the pIC50 was 6.37.

In turn, `CS(=O)(=O)N1CCC(C(=O)N2CCC(CCCNC(=O)c3cc4ccncc4o3)CC2)CC1` had a pIC50 of 6.64.

On to `Cc1cc(C)c(CN2CCC3(CC2)CC3CNC(=O)c2cc3ccncc3o2)cn1` (stereo not drawn), for which the negative logarithm of the IC50 (pIC50) is 7.25.

Molecule `C=C(Oc1cccnc1)C(=O)NCC1CC12CCN(C(=O)CC1CCN(CC)CC1)CC2` (stereo not drawn) gave a pIC50 of 6.54.

Molecule `CS(=O)(=O)N1CCC2(CC1)CC2CNC(=O)c1cc2cnccc2[nH]1` (stereo not drawn) had a pIC50 of 5.70.

On to `O=C(NCC1CC12CCN(C(=O)NCc1ccc(Cl)c(O)c1)CC2)c1cc2ccncc2o1` (stereo not drawn), for which the pIC50 is 6.95.

With `N#CC1C=CC(NC(=O)N2CCC3(CC2)CC3CNC(=O)c2cc3ccncc3o2)=CC1` (stereo not drawn), the pIC50 is 7.12.

`O=C(NCC1=CCCC=C1)N1CCC2(CC1)CC2CNC(=O)N1Cc2ccncc2C1` (stereo not drawn) showed a negative-log IC50 (pIC50) of 7.23.

In turn, `C/C=N\C=C1/CCN(C(=O)NCCCCCCN(CC)C(=O)c2ccc(N3CCN(C)CC3)cc2)C1` showed a pIC50 of 8.01.

`CC(=O)NCC(C)(C)OC(=O)N1CCC(CCCNC(=O)N2Cc3ccncc3C2)CC1` showed a pIC50 of 7.69.

In the case of `CN1CCC(CC(=O)N2CCC3(CC2)CC3CNC(=O)c2cc3cnccc3[nH]2)CC1` (stereo not drawn), the negative logarithm of the IC50 (pIC50) is 6.89.

In the case of `O=CN1CCC2(CC1)CC2CNC(=O)c1cc2ccncc2o1` (stereo not drawn), the pIC50 was 6.30.

Regarding `O=C(NCCC1CCN(C(=O)c2ccnc3ncccc23)CC1)c1cc2ccncc2o1`, the pIC50 is 6.49.

Molecule `CCN(C)CCCCC(=O)N1CCC2(CC1)CC2CNC(=O)c1cc2ccncc2o1` (stereo not drawn) showed a pIC50 of 6.92.

For `C=Cc1cc(C(=O)NCC2CC23CCN(C(=O)C2CCCN2C(N)=O)CC3)oc1C=N` (stereo not drawn), the pIC50 was 6.40.

Consider `C=Cc1cc(C(=O)NCC2CC23CCN(C(=O)c2cnccc2C)CC3)oc1C=N` (stereo not drawn), for which the pIC50 was 6.68.

On to `O=C(NCC1CC12CCN(C(=O)Cc1ccccc1)CC2)c1cc2cnccc2[nH]1` (stereo not drawn), for which the pIC50 was 7.19.

With `CCC(CCNC(C)C)CC(=O)N1CCC2(CC1)CC2CNC(=O)N1Cc2ccncc2C1` (stereo not drawn), the pIC50 is 7.52.

With `CC(C)(C)OC(=O)N1CCC2(CC1)CC2CNC(=O)c1cc2[nH]ncc2o1` (stereo not drawn), the pIC50 was 6.42.

The molecule `C=Cc1cc(C(=O)NCC2CC23CCN(C(=O)C2CCCN2C(C)=O)CC3)oc1C=N` (stereo not drawn) showed a pIC50 of 6.09.

The molecule `N#CC1CC=C(C(=O)N2CCC3(CC2)CC3CNC(=O)c2cc3ccncc3o2)C=N1` (stereo not drawn) had a pIC50 of 6.57.

With `C=Cc1cc(C(=O)NCC2CC23CCN(C(=O)c2c(CC)noc2C)CC3)oc1C=N` (stereo not drawn), the pIC50 was 6.98.

The molecule `C=C/C=C(C#N)\C=C\CC(=O)N(CC)CCCCCCNC(=O)c1cc2cnccc2[nH]1` gave a pIC50 of 6.58.

Regarding `C=C(CC)C1CCC2(CC1)CC2CNC(=C)N1CC/C(=C\C=C/C)C1` (stereo not drawn), the pIC50 is 7.99.

Turning to `C=C/C(C#N)=C\C=C\CC(=O)N(CC)CCC1CC1CNC(=O)c1cc2cnccc2[nH]1` (stereo not drawn), the pIC50 is 6.75.

`CN1CCN(Cc2cccc(C(=O)N3CCC4(CC3)CC4CNCc3cc4cnccc4[nH]3)c2)CC1` (stereo not drawn) gave a negative-log IC50 (pIC50) of 7.01.

In the case of `C=N/C=C\c1coc(C(=O)NCC2CC23CCN(C(=O)OCCO)CC3)c1` (stereo not drawn), the pIC50 is 7.12.

`O=C(NCC1CC12CCN(Cc1ccccc1)CC2)c1cc2cnccc2[nH]1` (stereo not drawn) gave a pIC50 of 7.30.

Molecule `C=C/C=C\c1c[nH]nc1C(=O)N1CCC2(CC1)CC2CNC(=O)c1cc2c(o1)=CNCC=2` (stereo not drawn) had a pIC50 of 6.43.

In turn, `O=C(NCC1CC12CCN(C(=O)Cc1cc(F)cc(F)c1)CC2)C1Cc2cnccc2O1` (stereo not drawn) had a negative logarithm of the IC50 (pIC50) of 7.76.

For `CC1(C)CC1C(=O)N1CCC2(CC1)CC2CNC(=O)C1Cc2ccncc2O1` (stereo not drawn), the pIC50 was 7.83.

In turn, `CN(CCC1(C)CC1CNC(=O)C1=CC2C=CN=CC2O1)C(N)=O` (stereo not drawn) gave a negative logarithm of the IC50 (pIC50) of 7.25.

Molecule `C=C(CCC(=C)/C(C)=C\C=N)NCC1CC12CCN(C(=O)C/C=C\C(=C/C)C(=C)C1CCC(C)CC1)CC2` (stereo not drawn) gave a pIC50 of 7.64.

The molecule `O=C(NCC1CC12CCN(C(=O)CC1CCCCC1)CC2)C1Cc2cnccc2O1` (stereo not drawn) showed a pIC50 of 7.84.

Molecule `C=C(/C=C\C(=C)C(=C)C(CC)CCCCCCNC(=C)c1cc2cnccc2[nH]1)CCCCC(C)CC` (stereo not drawn) had a pIC50 of 7.27.

In the case of `O=C(NCC1CC12CCN(C(=O)CN1CCOCC1)CC2)C1Cc2cnccc2O1` (stereo not drawn), the negative logarithm of the IC50 (pIC50) was 6.88.

Regarding `C=Cc1cc(C(=O)NCC2CC23CCN(C(=O)c2cocn2)CC3)oc1C=N` (stereo not drawn), the pIC50 was 6.08.

The molecule `CC(C)(C)CS(=O)(=O)N1CCC2(CC1)CC2CNC(=O)C1Cc2ccncc2N1` (stereo not drawn) had a pIC50 of 7.63.

`Cc1nc2ccccn2c1C(=O)N1CCC2(CC1)CC2CNC(=O)C1Cc2ccncc2O1` (stereo not drawn): the pIC50 was 7.09.

Molecule `Cc1n[nH]c(C)c1C(=O)N1CCC2(CC1)CC2CNC(=O)c1cc2ccncc2o1` (stereo not drawn) gave a pIC50 of 7.57.

In turn, `CC(C)(C)CCN1CCC2(CC1)CC2CNC(=O)N1CC2=CN=C(N)CC2C1` (stereo not drawn) gave a pIC50 of 6.54.
